Literature values as cited in US20210206875A1, “ERBB-2 TARGETING AGENT AND A BISPECIFIC ANTIBODY WITH ANTIGEN-BINDING SITES THAT BIND AN EPITOPE ON AN EXTRACELLULAR PART OF ERB-2 AND ERBB-3, FOR TREATMENT OF AN INDIVIDUAL WITH AN ERBB-2, ERBB-2/ERBB-3 POSITIVE TUMOUR” (Merus N.V., priority 2017, published 2021).

Settings: adjuvant setting with DOX; cited from earlier work

trastuzumab
risk for developing asymptomatic cardiac dysfunction: about 25%
